# Values of other authors as cited in patent publication US7671017B2, “Use of a combination of cyclosporine and pegylated interferon for treating hepatitis C (HCV)” (Novartis AG, priority 2004, dated 2010).
# System: HCV
# Conditions: patients with chronic HCV; given once weekly vs unpegylated interferon alfa-2a three times weekly
substance,measurement,value
pegylated interferon alfa-2a: interferon alfa-2a with a covalently attached polyethylene glycol (PEG) moiety,effectiveness of treatment of chronic HCV,more effective treatment than a regimen of unpegylated interferon alfa-2a given three times weekly
